Measured values reported in US12435059B2 (dated 2025).

Chains of the proteins cited; added tags and fusions are not shown. Residues count along the entry.
UniProt P62344, 2-524 limits assumed: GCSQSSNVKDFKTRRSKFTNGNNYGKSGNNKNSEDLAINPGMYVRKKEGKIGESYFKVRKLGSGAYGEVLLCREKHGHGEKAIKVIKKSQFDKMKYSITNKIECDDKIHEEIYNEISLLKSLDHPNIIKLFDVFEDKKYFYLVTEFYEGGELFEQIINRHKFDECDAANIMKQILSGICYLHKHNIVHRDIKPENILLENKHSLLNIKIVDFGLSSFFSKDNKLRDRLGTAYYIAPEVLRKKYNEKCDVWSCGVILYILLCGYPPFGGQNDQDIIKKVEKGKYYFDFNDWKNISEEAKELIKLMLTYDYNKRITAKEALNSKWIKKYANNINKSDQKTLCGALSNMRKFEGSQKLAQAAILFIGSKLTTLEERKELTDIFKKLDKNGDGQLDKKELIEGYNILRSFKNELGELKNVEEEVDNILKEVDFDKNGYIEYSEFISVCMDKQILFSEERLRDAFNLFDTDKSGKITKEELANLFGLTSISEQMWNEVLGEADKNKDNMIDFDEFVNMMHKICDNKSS

Assays:
468 kinases [1] = molecular target: 468 kinases (Plasmodium falciparum, UniProt P62344); experiment: biochemical; conditions: read-out: % Inhibition @ 100 nM
468 kinases [2] = molecular target: 468 kinases (Plasmodium falciparum, UniProt P61075); experiment: biochemical; conditions: read-out: % Inhibition @ 100 nM

Q: What does the source list for `CCN(CC)CCNC(=O)c1c(C)[nH]c(/C=C2\C(=O)Nc3ccc(F)cc32)c1C` [Sunitinib, (Z)—N-(2-(Diethylamino)ethyl)-5-((5-fluoro-2-oxoindolin-3-ylidene)methyl)-2,4-dimethyl-1H-pyrrole-3-carboxamide, reference compound]?
A: inhibition at 0.1 µM (468 kinases [1]): 8%; inhibition at 0.1 µM (468 kinases [2]): 43%
